## Measured affinities in a library of Ab-95 light chain variants

Target: peptide PDVDLGDISGINAS, taken from heptad repeat 2 (HR2) of SARS-CoV-2 spike.

The variants keep the heavy chain, the linker and the frameworks of Ab-95 (scFv order VH, a (GGGGS)3 linker, VL).
VH: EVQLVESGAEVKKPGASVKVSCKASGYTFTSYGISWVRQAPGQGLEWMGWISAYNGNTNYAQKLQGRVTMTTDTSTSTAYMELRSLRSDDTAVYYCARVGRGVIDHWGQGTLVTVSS
VL: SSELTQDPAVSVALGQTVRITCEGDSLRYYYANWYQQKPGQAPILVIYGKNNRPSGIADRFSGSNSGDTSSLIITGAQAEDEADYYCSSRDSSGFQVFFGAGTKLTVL

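The library (AAYL52) carries one to three amino acid substitutions per variant, with no insertions or deletions. The scFvs were displayed on barcoded MATa yeast, the peptide on MATalpha yeast. Mating (16 h, 30 °C) was followed by selection of diploids and sequencing of their barcodes. Read counts were normalised to the haploid input and turned into Kd by a linear fit to BCL2-family pairs of known affinity, for each replicate. The assay was run in three technical replicates.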

Variants are written as CDR1, CDR2 and CDR3 of the light chain (limits as in the source). Parent: EGDSLRYYYAN, GKNNRPS, SSRDSSGFQVF.
Affinities are written as log10 Kd with Kd in nM; a lower number is a better binder.
The mean shown is taken over the replicates in which the pair was detected.
A pair that was not seen in that replicate is written "n.d."; this usually means weak binding, but a binder can also be missed.

CDR-L1 | CDR-L2 | CDR-L3 | log10 Kd, replicates | log10 Kd (nM), mean | empty controls
EGDYFRYVYAN | GKNNRPS | SSRDSSGFQVF | 3.03 2.73 2.79 | 2.85 | 4 of 9 (3.80)
EGDSLEYYYAN | GRNNRPS | SGRDSSGFQVF | 2.75 2.40 3.25 | 2.80 | 4 of 9 (3.75)
EGDHLRYYYAN | GKNNRAS | SSRDSSGFFVF | 3.86 n.d. n.d. | 3.86 | 0 of 9
EGWSLRYYYAN | GKNNRPS | SSRDSSGFQVF | 3.37 2.99 2.68 | 3.01 | 4 of 9 (4.48)
EGDSLRYYYAK | GHNNRPS | SSRDSSGFQVF | 3.03 5.68 n.d. | 4.36 | 3 of 9 (3.46)
EADSLIYYYAN | GKNNLPS | SSRDSSGFQVF | n.d. n.d. 3.32 | 3.32 | 2 of 9 (3.36)
EGDSLRLYYAN | GCNNRPS | SSRDSSGFQVF | n.d. n.d. n.d. | n.d. | 0 of 9
EGDSLRYYCAN | GKNNRPS | SWRDSSGFQGF | 2.00 2.04 2.25 | 2.10 | 1 of 9 (4.72)
EGDSLRYYYAN | GKNNRWP | SSRDSSVFQVF | 4.31 4.42 n.d. | 4.36 | 1 of 9 (4.18)
EGDSLRYHYAN | GKNNRPS | SKRDWSGFQVF | 2.66 2.10 2.03 | 2.26 | 4 of 9 (3.58)
EGDSLRYYYAA | GKNNRPS | SSRDSSGMIVF | n.d. n.d. n.d. | n.d. | 2 of 9 (4.09)
EGSSLRYYCAN | NKNNRPS | SSRDSSGFQVF | 2.59 2.80 1.93 | 2.44 | 2 of 9 (3.24)
EGCSLRYYYAN | GKNNRPS | SSDDSSGFQVS | n.d. n.d. n.d. | n.d. | 0 of 9
EGDCLRYYYAN | QKNNRPS | LSRDSSGFQVF | 4.57 n.d. 3.58 | 4.08 | 6 of 9 (3.77)
EGDSLRLYYAN | TKNNRPS | SSRDSSFFQVF | n.d. n.d. n.d. | n.d. | 7 of 9 (3.64)
EWDSLRYYYAN | GKNNRPS | SSRDSSGKQVF | 3.10 3.49 3.35 | 3.31 | 4 of 9 (3.81)
EGDSLRYYYAN | GKNNRPS | SSRYSSFFQGF | 2.26 2.79 2.29 | 2.44 | 2 of 9 (3.70)
EVDCTRYYYAN | GKNNRPS | SSRDSSGFQVF | n.d. n.d. n.d. | n.d. | 1 of 9 (2.94)
YGDSLRYYYAN | GKNNRPS | SSRDSSGTQAF | 3.21 2.96 3.56 | 3.24 | 4 of 9 (4.24)
ESDSLRYYYAN | LKNNRPS | SSRDSMGFQVF | n.d. n.d. n.d. | n.d. | 1 of 9 (4.37)
EGDALRYYYAN | GKLNRPS | SSIDSSGFQVF | n.d. n.d. n.d. | n.d. | 0 of 9
EGDSLRYYYAN | GKNNRPV | QSRDSSGFQVA | n.d. n.d. n.d. | n.d. | 2 of 9 (4.89)
EGDSLRGYNMN | GKNNRPS | SSRDSSGFQVF | 0.72 0.70 -0.28 | 0.38 | 1 of 9 (4.59)
EGFSLRYYYAN | GKNNSCS | SSRDSSGFQVF | 4.64 n.d. n.d. | 4.64 | 3 of 9 (3.16)
EGDSLRYYYLN | GKRNRPS | SSRDFSGFQVF | n.d. 5.47 n.d. | 5.47 | 1 of 9 (3.45)
EDDSLRYYYAN | GKNNRPS | SSDDESGFQVF | 4.61 3.25 n.d. | 3.93 | 4 of 9 (3.65)
EIDSLRYYYAN | GKVNRPC | SSRDSSGFQVF | n.d. n.d. n.d. | n.d. | 2 of 9 (3.37)
EFDSLRYYYVK | GKNNRPS | SSRDSSGFQVF | n.d. n.d. n.d. | n.d. | 4 of 9 (3.79)
KGDSLRYLYAN | GKNNRPS | SDRDSSGFQVF | 2.74 3.64 2.31 | 2.89 | 4 of 9 (3.77)
EGDSLRYYYQD | GKNNRPS | SSTDSSGFQVF | n.d. n.d. n.d. | n.d. | 2 of 9 (4.32)
EGDSLRYYYAN | GKNLRPS | SGRDSSGQQVF | 2.01 1.90 1.48 | 1.80 | 3 of 9 (3.30)
EGQSLRYYYAN | GKNNRPS | SWRDSSGPQVF | n.d. n.d. 3.76 | 3.76 | 3 of 9 (3.11)
EGDSLRYYYAN | GKNNRPS | SSRDSDGCKVF | n.d. n.d. 3.62 | 3.62 | 0 of 9
EGDSLEHYYAN | GKDNRPS | SSRDSSGFQVF | 2.23 1.70 1.71 | 1.88 | 5 of 9 (4.17)
EGDSLRYYYAN | GKNNRPY | SSRDSSGFQVF | 2.51 2.20 2.06 | 2.25 | 3 of 9 (3.93)
EGDRLRYYYAN | GFNNRPS | SSLDSSGFQVF | 4.51 4.33 4.16 | 4.33 | 3 of 9 (4.10)
EGDWLRYYYAN | GKNNRNS | SSIDSSGFQVF | n.d. n.d. 4.03 | 4.03 | 1 of 9 (4.76)
EGDAMRYYYAN | GKANRPS | SSRDSSGFQVF | 2.96 3.39 n.d. | 3.17 | 3 of 9 (3.68)
EWDSLGYYYAN | GKNNRPS | SSRDSSGFQVY | 3.44 3.53 2.46 | 3.14 | 3 of 9 (3.45)
EGDSDRYYYAN | GKNNRPS | TSRDSSGFQHF | 2.93 4.06 4.40 | 3.79 | 7 of 9 (3.99)
GGDSSRYYYAN | GKMNRPS | SSRDSSGFQVF | 4.24 n.d. n.d. | 4.24 | 6 of 9 (4.15)
EGDSLRAYYAN | GKNARPS | SSRDSSGFQVF | 1.96 2.10 1.42 | 1.83 | 4 of 9 (3.89)
EGDSLRNYYAN | GKNNMPS | HSRDSSGFQVF | n.d. 3.92 n.d. | 3.92 | 3 of 9 (3.30)
EGDWLRYYMAN | GKNNRPS | SSRDSSGFQRF | 3.57 n.d. n.d. | 3.57 | 2 of 9 (4.60)
EGDSHRYYYAE | GKNNRPS | SSRDRSGFQVF | 4.28 n.d. n.d. | 4.28 | 1 of 9 (3.67)
EGDSLRYYYAN | GKNNRRS | SSRDSDIFQVF | n.d. n.d. n.d. | n.d. | 0 of 9
EGDHLRYFYAN | GKNNRPQ | SSRDSSGFQVF | 2.71 2.59 2.13 | 2.47 | 2 of 9 (4.34)
EGSSLRYYYAN | GKNNRPS | STRDSPGFQVF | 1.99 2.79 2.01 | 2.26 | 1 of 9 (2.83)
EGDSLRMYYAN | GKNNCPS | SSRDMSGFQVF | 4.33 3.71 4.30 | 4.11 | 4 of 9 (3.74)

From the list, the first 7 with no signal in any replicate:

CDR-L1,CDR-L2,CDR-L3,"log10 Kd, replicates","log10 Kd (nM), mean",empty controls
EGDSLRLYYAN,GCNNRPS,SSRDSSGFQVF,n.d. n.d. n.d.,n.d.,0 of 9
EGDSLRYYYAA,GKNNRPS,SSRDSSGMIVF,n.d. n.d. n.d.,n.d.,2 of 9 (4.09)
EGCSLRYYYAN,GKNNRPS,SSDDSSGFQVS,n.d. n.d. n.d.,n.d.,0 of 9
EGDSLRLYYAN,TKNNRPS,SSRDSSFFQVF,n.d. n.d. n.d.,n.d.,7 of 9 (3.64)
EVDCTRYYYAN,GKNNRPS,SSRDSSGFQVF,n.d. n.d. n.d.,n.d.,1 of 9 (2.94)
ESDSLRYYYAN,LKNNRPS,SSRDSMGFQVF,n.d. n.d. n.d.,n.d.,1 of 9 (4.37)
EGDALRYYYAN,GKLNRPS,SSIDSSGFQVF,n.d. n.d. n.d.,n.d.,0 of 9

As a blank, each scFv also met three strains without target: over library AAYL52, 28% of these pairings were detected, typically at 3.91 and seldom below 2.90. Also given: how often the same scFv was detected with the empty control strains, with their mean in brackets.

From the AlphaSeq antibody data of Engelhart et al. 2022 (doi:10.1038/s41597-022-01779-4), copy in the FLAb collection.